From PubChem BioAssay (EPA / NIEHS)
The list shows a part of the results, in another mix than the full data. Records with an inconclusive call do not appear. Active and inactive are the calls of the source. How the source made its calls, unless noted: active means hit-call score of the fitted dose curve at least 0.9, where 1 is the maximum; inactive means score below 0.9.

How the values were obtained:
SRD5A2 (gene 6716) = assay: CCTE_Deisenroth_5AR_NBTE_ratio: CCTE's 5alpha-reductase NanoBRET Target Engagement Assay - Ratio, Deisenroth Lab (AID 2284322); conditions: actives raise or lower the signal
Method in brief: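 SRD5A2-NanoLuc HEK293T; cmpd 10 nM-29.9 uM, 3 h preinc + testosterone tracer 2 h; NanoBRET ratio 650/460; bidirectional fit vs DMSO.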

[1] = IUF_NPC1_cytotoxicity_72hr: Cytotoxicity Assessment at 72 hours in the Leibniz Research Institute for Environmental Medicine (IUF) Neural Progenitor Cell Proliferation Assay (NPC1) (AID 2284332; active means hit-call score of the fitted dose curve at least 0.9, where 1 is the maximum;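 further: rising LDH signal means more cytotoxicity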)
Method in brief: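 Readout is fluorescence from LDH-dependent resazurin conversion, sampled from culture medium after compound contact lasting 72 h. Each well holds one 0.25-0.35 mm human progenitor sphere kept at 37C, 5% CO2 with EGF and FGF.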

[2] = CCTE_Mundy_HCI_iCellGluta_NOG_NeuronCount: CCTE's Neurite Outgrowth Assay in iCellGluta cells for Neuron Count, Mundy Lab (AID 2284340; active means hit-call score of the fitted dose curve at least 0.9, where 1 is the maximum;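 further: cells fixed about 48 h after compound addition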)
Method in brief: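 Neuron count read by automated high-content imaging of Hoechst 33342 and betaIII-tubulin/Alexa Fluor-488 labelling in human iPSC glutamatergic neurons. Activity fitted relative to DMSO.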

[3] = CCTE_Mundy_HCI_iCellGluta_NOG_NeuriteCount: CCTE's Neurite Outgrowth Assay in iCellGluta cells for Neurite Count, Mundy Lab (AID 2284342; active means hit-call score of the fitted dose curve at least 0.9, where 1 is the maximum;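 further: chemical exposure about 48 hours starting 2 hours after plating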)
SERPINA7 (gene 6906) = assay: CCTE_GLTED_hTBG: CCTE's human Thyroxine-binding Globulin (TBG) Inhibition Assay, Great Lakes Toxicology and Ecology Division (GLTED) Lab (AID 2284343; active means hit-call score of the fitted dose curve at least 0.9, where 1 is the maximum;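 further: active chemicals lower fluorescence versus DMSO baseline by displacing probe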)
Method in brief: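 Steps: combine TBG with chemical; incubate 2 hours so that disruptors release ANSA; record fluorescence (380 ex, 475 em). Loss of signal was fitted against DMSO controls.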

TTR (gene 7276) = assay: CCTE_GLTED_hTTR_0.125uM: CCTE's human Transthyretin (hTTR) Inhibition Assay, with 0.125uM TTR, Great Lakes Toxicology and Ecology Division (GLTED) Lab (AID 2284431);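 further: hits lower the fluorescence signal relative to DMSO baseline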
Method in brief: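 Activity is defined as decreased ANSA fluorescence (ex 380, em 475) from human transthyretin, 0.125uM, following 2-hour chemical exposure in a cell-free setup, with DMSO as baseline.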

[4] = CCTE_Padilla_ZF_Score.General: CCTE's 144 Hour Post-fertilization zebrafish Assay Score for General Malformation, Padilla Lab (AID 2284411)
Method in brief: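 Malformation, death and hatching were scored at 6 dpf by two blinded observers under a stereo microscope. Embryos were dosed singly from 6-8 hpf in sealed plates of 10% Hanks' at 26C and rinsed on 5 dpf; DMSO baseline.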

CC(C)OP(=S)(OC(C)C)SCCNS(=O)(=O)c1ccccc1
outcome (SRD5A2 (gene 6716)): inactive | outcome [1]: inactive | AC50 [2]: active: 52 µM | AC50 [3]: active: 28 µM

Cc1cc([N+](=O)[O-])cc([N+](=O)[O-])c1O
AC50 (SRD5A2 (gene 6716)): active: 50 µM | AC50 (SERPINA7 (gene 6906)): active: 43.7 µM | AC50 (TTR (gene 7276)): active: 0.0275 µM

CC(C)OP(=O)(OC(C)C)SCCNS(=O)(=O)c1ccccc1
outcome [1]: inactive | outcome [3]: inactive

O=[N+]([O-])c1ccc([N+](=O)[O-])cc1
outcome [4]: inactive

CCCCOP(OCCCC)OCCCC
AC50 [4]: active: 73.1 µM

CC(C)CCCCCCCOP(OCCCCCCCC(C)C)Oc1ccccc1
AC50 (TTR (gene 7276)): active: 3.61 µM
